Results published in ChEMBL document CHEMBL2412971, “Selective orexin receptor antagonists” (Bioorg Med Chem Lett, 2013).

By UniProt entry, the sequences of proteins in these tests, tags left out.
UniProt O43613, whole entry: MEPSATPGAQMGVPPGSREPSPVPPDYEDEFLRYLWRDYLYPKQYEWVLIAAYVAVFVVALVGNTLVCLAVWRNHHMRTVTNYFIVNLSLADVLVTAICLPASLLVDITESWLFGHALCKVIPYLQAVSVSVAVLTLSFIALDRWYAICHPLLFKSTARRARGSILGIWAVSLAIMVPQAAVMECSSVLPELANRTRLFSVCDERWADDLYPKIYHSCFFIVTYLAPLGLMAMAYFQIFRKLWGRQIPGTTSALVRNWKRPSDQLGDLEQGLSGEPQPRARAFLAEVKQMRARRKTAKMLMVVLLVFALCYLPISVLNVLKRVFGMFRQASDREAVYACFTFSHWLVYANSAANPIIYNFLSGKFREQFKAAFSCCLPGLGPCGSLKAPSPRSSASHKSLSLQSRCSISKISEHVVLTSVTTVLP

Target: Orexin/Hypocretin receptor type 1 (Homo sapiens, UniProt O43613)
Assay: Binding affinity to orexin receptor 1 (unknown origin)

- Ki: 13 nM
Compound: CNC(=O)[C@@H](c1ccccc1)N1CCc2cc(OC)c(OC)cc2[C@@H]1CCc1ccc(C(F)(F)F)cc1 [ALMOREXANT]
